Assay results as given in BindingDB's records for doi:10.1016/j.ejmech.2013.04.007 (Astrazeneca, 2013).

Test: Antagonist activity at P2Y12 receptor in human washed platelets assessed as inhibition of fibrinogen-induced aggregation

Work on `CCOC(=O)c1cc(C#N)c(N2CC(NC(=O)NS(=O)(=O)c3ccc(Cl)s3)C2)nc1C` yielded an IC50 of 9.5 nM.
